The results in this text go back to patent US9694016B2 (dated 2017).

The chains behind the UniProt entries cited, without tags or fusion partners. Where a name states a change or a piece, a line headed by the entry shows the natural chain unless it says otherwise. Residues count along the entry.
UniProt P04049, 325-648: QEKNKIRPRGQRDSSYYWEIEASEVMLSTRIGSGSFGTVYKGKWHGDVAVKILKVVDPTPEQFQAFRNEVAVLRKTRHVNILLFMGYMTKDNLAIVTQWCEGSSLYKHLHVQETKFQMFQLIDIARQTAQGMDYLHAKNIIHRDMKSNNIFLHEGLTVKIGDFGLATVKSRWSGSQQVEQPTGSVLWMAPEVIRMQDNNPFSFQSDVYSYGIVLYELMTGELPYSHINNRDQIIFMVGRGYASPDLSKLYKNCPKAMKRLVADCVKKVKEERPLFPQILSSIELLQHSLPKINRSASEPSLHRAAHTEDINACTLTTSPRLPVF
UniProt P15056, whole entry V600E: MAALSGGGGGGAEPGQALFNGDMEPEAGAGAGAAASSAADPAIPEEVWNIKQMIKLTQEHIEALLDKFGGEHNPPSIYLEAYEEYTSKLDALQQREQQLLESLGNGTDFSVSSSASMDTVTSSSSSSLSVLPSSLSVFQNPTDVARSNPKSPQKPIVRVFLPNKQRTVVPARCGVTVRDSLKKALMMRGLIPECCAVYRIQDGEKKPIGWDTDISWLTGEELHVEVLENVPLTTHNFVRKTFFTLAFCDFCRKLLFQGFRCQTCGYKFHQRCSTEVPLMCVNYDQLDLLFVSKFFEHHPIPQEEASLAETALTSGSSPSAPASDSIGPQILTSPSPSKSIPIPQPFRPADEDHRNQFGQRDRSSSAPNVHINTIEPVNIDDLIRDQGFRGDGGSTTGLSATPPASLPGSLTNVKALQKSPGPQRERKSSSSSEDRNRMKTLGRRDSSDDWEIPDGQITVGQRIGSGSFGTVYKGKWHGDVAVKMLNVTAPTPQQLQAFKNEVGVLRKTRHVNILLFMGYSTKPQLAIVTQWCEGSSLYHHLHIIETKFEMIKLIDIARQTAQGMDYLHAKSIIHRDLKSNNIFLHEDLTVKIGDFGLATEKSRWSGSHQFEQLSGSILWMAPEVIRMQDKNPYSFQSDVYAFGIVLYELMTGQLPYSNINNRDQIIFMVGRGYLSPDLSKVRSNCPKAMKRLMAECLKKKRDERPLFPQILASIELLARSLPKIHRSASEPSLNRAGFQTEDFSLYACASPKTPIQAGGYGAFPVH

Like-named read-outs stand apart in the source and are kept apart here.

The target of test [1] is C-Raf TR (truncated C-Raf protein, Δ1-324 deletion mutant) (Homo sapiens (Human), UniProt P04049). Type of test: biochemical. Conditions: read-out: C-Raf TR IC50; truncated C-Raf approximately 4 nM, ATP 1 uM, 60 min pre-incubation, 1 hour reaction.
The target of another test is b-Raf (V600E) (Homo sapiens (Human), UniProt P15056, V600E). Conditions: read-out: b-Raf IC-50.
Setting [2] is: Table 2, AlphaScreen, 3 hours reaction.
Where [3] appears, read: AlphaScreen, 60 min pre-incubation, reaction 3 hours at room temperature.
The mark [4] stands for this setting: AlphaScreen, 60 min pre-incubation, 3 hours reaction.

Turning to `Cc1ccc(NC(=O)c2cccc(C(F)(F)F)c2)cc1-c1cc(N2CCS(=O)(=O)CC2)nc(N2CCOCC2)n1` [Example 6, N-(3-(6-(1,1-dioxidothiomorpholino)-2-morpholinopyrimidin-4-yl)-4-methylphenyl)-3-(trifluoromethyl)benzamide], the IC50 in test [1] is 0.408 nM.
With `C=C(C)c1cc(-c2cc(NC(=O)c3cccc(C(F)(F)F)c3)ccc2C)nc(N2CCOCC2)n1` [Example 42, N-(4-methyl-3-(2-morpholino-6-(prop-1-en-2-yl)pyrimidin-4-yl)phenyl)-3-(trifluoromethyl)benzamide], on b-Raf (V600E) (setting [2]), the IC50 is 1.6 nM.
Take `O=C(Nc1c[nH]c(=O)c(-c2ccnc(N3CCOCC3)c2)c1)c1ccnc(C(F)(F)F)c1` [Example 1172, N-(2′-morpholino-2-oxo-1,2-dihydro-[3,4′-bipyridin]-5-yl)-2-(trifluoromethyl)isonicotinamide]: the IC50 at b-Raf (V600E) (setting [3]) came to 25000 nM.
Consider `O=C(Nc1c[nH]c(=O)c(-c2ccnc(N3CCOCC3)c2)c1)c1ccnc(C(F)(F)F)c1` [Example 90, N-(2′-morpholino-2-oxo-1,2-dihydro-[3,4′-bipyridin]-5-yl)-2-(trifluoromethyl)isonicotinamide], for which the IC50 on b-Raf (V600E) (setting [2]) turned out to be 25000 nM.
For `Cc1ncc(NC(=O)c2ccnc(C(F)F)c2)cc1-c1cnc(OC2CC3(COC3)C2)c(N2CCOCC2)c1` [Example 965, N-(6′-(2-oxaspiro[3.3]heptan-6-yloxy)-2-methyl-5′-morpholino-[3,3′-bipyridin]-5-yl)-2-(difluoromethyl)isonicotinamide], the IC50 at b-Raf (V600E) (setting [3]) was found to be 1.87 nM.
In the case of `Cc1ccc(NC(=O)c2ccnc(N(C)C)c2)cc1-c1cc(N2CCOCC2)c(=O)n(C)c1` [Example 452, 2-(dimethylamino)-N-(4-methyl-3-(1-methyl-5-morpholino-6-oxo-1,6-dihydropyridin-3-yl)phenyl)isonicotinamide], the IC50 on b-Raf (V600E) was 2.3 nM.
As for `Cc1nc(-c2cccc(NC(=O)c3ccc(C)c(-c4cc(N5CCOCC5)c(=O)n(C)c4)c3)c2)no1` [Example 438, 4-methyl-N-(3-(5-methyl-1,2,4-oxadiazol-3-yl)phenyl)-3-(1-methyl-5-morpholino-6-oxo-1,6-dihydropyridin-3-yl)benzamide], on b-Raf (V600E) (setting [4]), the IC50 was 27.6 nM.
`Cc1ncc(NC(=O)c2cc(C(C)(C)O)ccn2)cc1-c1cnc(OC(C)C)c(N2CCOCC2)c1` [Example 959, 4-(2-hydroxypropan-2-yl)-N-(6′-isopropoxy-2-methyl-5′-morpholino-[3,3′-bipyridin]-5-yl)picolinamide]: the IC50 on b-Raf (V600E) (setting [3]) is 19.4 nM.
For the molecule `Cc1ccc(NC(=O)c2ccnc(C(C)(C)C#N)c2)cc1-c1cc(N2CCOCC2)nc(NC[C@H](C)O)n1` [Example 739, (S)-2-(2-cyanopropan-2-yl)-N-(3-(2-((2-hydroxypropyl)amino)-6-morpholinopyrimidin-4-yl)-4-methylphenyl)isonicotinamide], at b-Raf (V600E) (setting [4]), the IC50 was determined as 4.1 nM.
Same read-out and setting: in the case of `Cc1ncc(NC(=O)c2ccnc(C(C)(C)C#N)c2)cc1-c1cc(N2CCOCC2)nc(NCCO)n1` [Example 736, 2-(2-cyanopropan-2-yl)-N-(5-(2-((2-hydroxyethyl)amino)-6-morpholinopyrimidin-4-yl)-6-methylpyridin-3-yl)isonicotinamide] it was 47.8 nM.
`COc1ncc(-c2cc(NC(=O)c3cccc(C(F)(F)F)c3)cnc2C)cc1N1CCOCC1` [Example 127, N-(6′-methoxy-2-methyl-5′-morpholino-[3,3′-bipyridin]-5-yl)-3-(trifluoromethyl)benzamide]: the IC50 on b-Raf (V600E) (setting [2]) came out at 1.9 nM.
In the case of `Cc1ncc(NC(=O)c2cccc(C(F)(F)F)c2)cc1-c1cnc(OCCOCCO)c(N2CCOCC2)c1` [Example 1033, N-(6′-(2-(2-hydroxyethoxy)ethoxy)-2-methyl-5′-morpholino-[3,3-bipyridin]-5-yl)-3-(trifluoromethyl)benzamide], the IC50 on b-Raf (V600E) (setting [3]) amounted to 2.08 nM.
As for `Cc1ccc(NC(=O)c2cccc(C(F)(F)F)c2)cc1-c1nc(N2CCOCC2)cc(N2CCOCC2)n1` [Example 13, N-(3-(4,6-dimorpholinopyrimidin-2-yl)-4-methylphenyl)-3-(trifluoromethyl)benzamide], the IC50 in test [1] was determined as 0.533 nM.
For `Cc1ccc(NC(=O)c2ccnc(C(C)(C)C#N)c2)cc1-c1cc(N2CCOCC2)ncn1` [Example 2, 2-(2-cyanopropan-2-yl)-N-(4-methyl-3-(6-morpholinopyrimidin-4-yl)phenyl)isonicotinamide], the IC50 in test [1] came to 2.95 nM.
`Cc1ccc(NC(=O)c2ccnc(C(C)(C)C#N)c2)cc1-c1cc(N2CCOCC2)nc(NC[C@@H](C)O)n1` [Example 741, (R)-2-(2-cyanopropan-2-yl)-N-(3-(2-((2-hydroxypropyl)amino)-6-morpholinopyrimidin-4-yl)-4-methylphenyl)isonicotinamide]: on b-Raf (V600E) (setting [4]), the IC50 was determined as 5.1 nM.
As to `Cc1ncc(NC(=O)c2cccc(C(F)F)c2)cc1-c1cc(N2CCOCC2)nc(N2CCOCC2)c1` [Example 1121, 3-(difluoromethyl)-N-(2-methyl-2′,6′-dimorpholino-[3,4′-bipyridin]-5-yl)benzamide], at b-Raf (V600E) (setting [3]), the IC50 was 1.93 nM.
`CCN1CCN(c2cc(C(=O)Nc3ccc(C)c(-c4cc(N5CCOCC5)c(=O)n(C)c4)c3)cc(C(F)(F)F)c2)CC1` [Example 174, 3-(4-ethylpiperazin-1-yl)-N-(4-methyl-3-(1-methyl-5-morpholino-6-oxo-1,6-dihydropyridin-3-yl)phenyl)-5-(trifluoromethyl)benzamide]: the IC50 on b-Raf (V600E) (setting [2]) was 6.9 nM.
Take `Cc1ccc(NC(=O)c2cccc(C(F)(F)F)c2)cc1-c1cc(N2CCOCC2)ccn1` [Example 111, N-(4-methyl-3-(4-morpholinopyridin-2-yl)phenyl)-3-(trifluoromethyl)benzamide]: in test [1], the IC50 came to 0.403 nM.
For the molecule `Cc1ccc(NC(=O)c2cccc(-c3nnco3)c2)cc1-c1cc(N2CCOCC2)n(C)c(=O)c1` [Example 493, N-(4-methyl-3-(1-methyl-6-morpholino-2-oxo-1,2-dihydropyridin-4-yl)phenyl)-3-(1,3,4-oxadiazol-2-yl)benzamide], at b-Raf (V600E) (setting [4]), the IC50 was 4.1 nM.
As to `Cc1ncc(NC(=O)c2cc(C(C)C)on2)cc1-c1cc(N2CCOCC2)c(=O)n(C)c1` [Example 379, N-(1′,2-dimethyl-5′-morpholino-6′-oxo-1′,6′-dihydro-[3,3′-bipyridin]-5-yl)-5-isopropylisoxazole-3-carboxamide], the IC50 at b-Raf (V600E) (setting [2]) turned out to be 5.9 nM.
Consider `Cc1ncc(NC(=O)c2cccc(C(F)(F)F)c2)cc1-c1cnc(C=C2CCOCC2)c(N2CCOCC2)c1` [Example 994, N-(6′-((dihydro-2H-pyran-4(3H)-ylidene)methyl)-2-methyl-5′-morpholino-[3,3′-bipyridin]-5-yl)-3-(trifluoromethyl)benzamide], for which the IC50 at b-Raf (V600E) (setting [3]) was 1.93 nM.
Take `Cc1ncc(NC(=O)c2cc(C(F)(F)F)ccn2)cc1-c1cc(N2CCOCC2)c2nccn2c1` [Example 876, N-(6-methyl-5-(8-morpholinoimidazo[1,2-a]pyridin-6-yl)pyridin-3-yl)-4-(trifluoromethyl)picolinamide]: on b-Raf (V600E), the IC50 was determined as 2.4 nM.
Consider `Cc1ccc(NC(=O)c2cc(C3CC3)nn2C)cc1-c1cc(N2CCOCC2)c(=O)n(C)c1` [Example 368, 3-cyclopropyl-1-methyl-N-(4-methyl-3-(1-methyl-5-morpholino-6-oxo-1,6-dihydropyridin-3-yl)phenyl)-1H-pyrazole-5-carboxamide], for which the IC50 on b-Raf (V600E) (setting [2]) amounted to 12.2 nM.
Regarding `Cc1ccc(NC(=O)c2ccnc(S(C)(=O)=O)c2)cc1-c1cc2[nH]cnc2c(N2CCOCC2)n1` [Example 821], on b-Raf (V600E), the IC50 was 3.8 nM.
Regarding `Cc1ccc(NC(=O)c2cccc(C(F)(F)F)c2)cc1-c1cc(N2CCOCC2)nc(N2CCOCC2)n1` [Example 10, N-(3-(2,6-dimorpholinopyrimidin-4-yl)-4-methylphenyl)-3-(trifluoromethyl)benzamide], in test [1], the IC50 was found to be 0.118 nM.
For `Cc1ccc(NC(=O)c2ccnc(C(C)(F)F)c2)cc1-c1cc(NC[C@@H](C)O)nc(N2CCOCC2)n1` [Example 1024], the IC50 on b-Raf (V600E) (setting [3]) came to 5.1 nM.
On to `Cc1ccc(NC(=O)c2cccc(C(F)(F)F)c2)cc1-c1cc(N2CCOCC2)c(S(C)(=O)=O)nn1` [Example 602, N-(4-methyl-3-(6-(methylsulfonyl)-5-morpholinopyridazin-3-yl)phenyl)-3-(trifluoromethyl)benzamide], for which, at b-Raf (V600E), the IC50 amounted to 1.2 nM.
